## Experimental vapor pressure values from OPERA 2.9

From the experimental data distributed with OPERA 2.9.

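The numbers are reported measurements, compiled and curated for the OPERA QSAR suite. A listed value is a point estimate from one report or more. How each value was measured is not recorded, so precision varies. Where a salt, mixture or single isomer is drawn, the source does not say that exactly this form was tested. Unmarked limits or estimates from the upstream databases cannot be ruled out.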

Vapor pressure is log10 of mmHg; the set covers 15 to 30 °C, mostly 20 to 25 °C.

For CCCOC(=O)c1cc(O)c(O)c(O)c1 [Gallic acid n-propyl ester] the data give vapor pressure -6.389 (log10 mmHg). Listed for O=C([O-])CCC(=O)NCCCCC(NC(=O)CCC(=O)[O-])C(=O)O.[Ca+2] (centres undefined) [N2,N6-Bis(3-carboxy-1-oxopropyl)-lysine calcium salt (1:1)]: vapor pressure -4.882 (log10 mmHg). Listed for CC(C)Nc1ccccc1 [N-Isopropylaniline]: vapor pressure -1.523 (log10 mmHg). O=C(Nc1ccc(Cl)c(Cl)c1)c1cc(Cl)cc(Cl)c1O [3,5-Dichlorosalicyl-3,4-dichloroanilide] is reported with vapor pressure -9.523 (log10 mmHg). Listed for CCCCCCCCCCCC(=O)OCCS(=O)(=O)[O-].[Na+] [Dodecanoic acid, 2-sulfoethyl ester, sodium salt]: vapor pressure -7.992 (log10 mmHg). CCCCC(CC)C(=O)OC(C)C (centres undefined) [Propan-2-yl 2-ethylhexanoate] has vapor pressure 0.462 (log10 mmHg). For COc1ccc([N+](=O)[O-])cc1OCCCN1CCN(C)CC1 [1-[3-(2-Methoxy-5-nitrophenoxy)propyl]-4-methylpiperazine] the data give vapor pressure -9.824 (log10 mmHg). Listed for Clc1ccc(-c2c(Cl)c(Cl)cc(Cl)c2Cl)c(Cl)c1 [2,2',3,4',5,6-Hexachlorobiphenyl]: vapor pressure -4.666 (log10 mmHg).

The entry for O=CCCC=C1CC2CC1C1CCCC21 (centres undefined) [4-(Octahydro-5H-4,7-methanoinden-5-ylidene)butanal] lists vapor pressure -3.084 (log10 mmHg). CC(C)[C@H](N)C(=O)O [L-Valine] has vapor pressure -7.467 (log10 mmHg). CO[Si](C)(C)CCCNCCN [N-(3-(Methoxydimethylsilyl)propyl)ethylenediamine] is reported with vapor pressure -1.648 (log10 mmHg). Brc1ccccc1Oc1ccccc1 [Benzene, bromophenoxy-] has vapor pressure -2.914 (log10 mmHg). CC1(C)CCC[C@]2(C)[C@H]3CC(=O)O[C@]3(C)CC[C@@H]12 [(3aR)-(+)-Sclareolide] is reported with vapor pressure -7.881 (log10 mmHg). O=S(=O)(O)CCC(F)(F)C(F)(F)C(F)(F)C(F)(F)C(F)(F)C(F)(F)F [6:2 Fluorotelomer sulfonic acid] has vapor pressure -1.833 (log10 mmHg). The entry for C=CCOCC(O)COCCCC (centres undefined) [1-Butoxy-3-[(prop-2-en-1-yl)oxy]propan-2-ol] lists vapor pressure -2.116 (log10 mmHg). For CCOc1ccccc1O [o-Ethoxyphenol] the data give vapor pressure -1.042 (log10 mmHg).

For CC(=O)C=O [Methyl glyoxal] the data give vapor pressure 1.275 (log10 mmHg). CC/C=C/CCC [(3E)-3-Heptene] is reported with vapor pressure 1.722 (log10 mmHg). The entry for CC(C#N)N=CO (centres undefined) [(1-Cyanoethyl)methanimidic acid] lists vapor pressure -1.763 (log10 mmHg). CC1CC(O)CC(C)(C)C1 (centres undefined) [3,3,5-Trimethylcyclohexanol] has vapor pressure -0.523 (log10 mmHg). C1=CC2C=CC1C2 [2,5-Norbornadiene] has vapor pressure 1.786 (log10 mmHg). For CC[Si](OC(C)=O)(OC(C)=O)OC(C)=O [Ethyltriacetoxysilane] the data give vapor pressure -1.429 (log10 mmHg). CC(Br)CC(C)Br (centres undefined) [Pentane, 2,4-dibromo-] is reported with vapor pressure 0.153 (log10 mmHg). For CO[Si](C)(C)CCCN [(3-Aminopropyl)dimethylmethoxysilane] the data give vapor pressure -0.365 (log10 mmHg).

The entry for C/C=C/C=C/C [(2E,4E)-2,4-Hexadiene] lists vapor pressure 1.932 (log10 mmHg). Cn1ccnc1 [1-Methylimidazole] has vapor pressure -0.497 (log10 mmHg). Listed for O=C([O-])C(O)C(O)C(O)C(O)C(O)CO.[Na+]: vapor pressure -6.581 (log10 mmHg). CCOC(=O)c1cccnc1 [Ethyl nicotinate] is reported with vapor pressure -1.443 (log10 mmHg). The entry for CC(=O)CO [Hydroxyacetone] lists vapor pressure 0.772 (log10 mmHg). Clc1ccc(Cl)c(-c2c(Cl)c(Cl)cc(Cl)c2Cl)c1Cl [2,2',3,3',5,6,6'-Heptachlorobiphenyl] has vapor pressure -4.975 (log10 mmHg). The entry for CCCCC(CC)COC(=O)CCCCCCCCC(=O)OCC(CC)CCCC (centres undefined) [Bis(2-ethylhexyl) decanedioate] lists vapor pressure -5.964 (log10 mmHg). CC(C)C1=CC2=CC[C@@H]3[C@](C)(CCC[C@@]3(C)C(=O)O)[C@H]2CC1 [Abietic acid] is reported with vapor pressure -6.496 (log10 mmHg).

The entry for CN(C)C(N)=O [1,1-Dimethylurea] lists vapor pressure -4.346 (log10 mmHg). C=C(C)C(=O)OCCN(CC)CC [2-(Diethylamino)ethyl methacrylate] has vapor pressure -0.989 (log10 mmHg). CC(CN)CCCN (centres undefined) [2-Methylpentanediamine] has vapor pressure -0.708 (log10 mmHg). For CC(=O)OC[C@H]1O[C@H](OC(C)=O)[C@H](OC(C)=O)[C@@H](OC(C)=O)[C@@H]1OC(C)=O [alpha-D-Glucopyranosyl pentaacetate] the data give vapor pressure -7.477 (log10 mmHg). For CC(N)CCN (centres undefined) [1,3-Butanediamine] the data give vapor pressure 0.653 (log10 mmHg). The entry for Clc1cc(Cl)c(Oc2c(Cl)cc(Cl)c(Cl)c2Cl)c(Cl)c1Cl [2,2',3,3',4,4',6,6'-Octachlorodiphenyl ether] lists vapor pressure -6.796 (log10 mmHg). Listed for Cc1cc(-n2nc3ccc(Cl)cc3n2)c(O)c(C(C)(C)C)c1 [Bumetrizole]: vapor pressure -8.252 (log10 mmHg). C(OCC1CO1)C1CO1 (centres undefined) [2,2'-(Oxybis(methylene))bisoxirane] is reported with vapor pressure -1.046 (log10 mmHg).

For COC(=O)[C@H](O)[C@@H](O)C(=O)OC the data give vapor pressure -3.189 (log10 mmHg). Listed for C=C[Si](OC)(OC)OC [Vinyltrimethoxysilane]: vapor pressure 0.951 (log10 mmHg). The entry for Clc1ccc(-c2c(Cl)cc(Cl)cc2Cl)c(Cl)c1 [2,2',4,4',6-Pentachlorobiphenyl] lists vapor pressure -4.215 (log10 mmHg). CN(C)C(=N)N(C)C [Guanidine, N,N,N',N'-tetramethyl-] has vapor pressure 0.402 (log10 mmHg).

A selection of 3 entries from above:

C=C(C)C(=O)OCCN(CC)CC [2-(Diethylamino)ethyl methacrylate] is reported with vapor pressure -0.989 (log10 mmHg).
CCCOC(=O)c1cc(O)c(O)c(O)c1 [Gallic acid n-propyl ester] is reported with vapor pressure -6.389 (log10 mmHg).
Cn1ccnc1 [1-Methylimidazole] is reported with vapor pressure -0.497 (log10 mmHg).